Literature values, collected in US20250003952A1, “SENOLYTIC DRUG SCREENING METHOD AND SENOLYTIC DRUG” (KYOTO UNIVERSITY, priority 2021, published 2025).

Sequences of proteins named here, by UniProt entry; tags and fusion partners are left off.
UniProt Q00987, whole entry: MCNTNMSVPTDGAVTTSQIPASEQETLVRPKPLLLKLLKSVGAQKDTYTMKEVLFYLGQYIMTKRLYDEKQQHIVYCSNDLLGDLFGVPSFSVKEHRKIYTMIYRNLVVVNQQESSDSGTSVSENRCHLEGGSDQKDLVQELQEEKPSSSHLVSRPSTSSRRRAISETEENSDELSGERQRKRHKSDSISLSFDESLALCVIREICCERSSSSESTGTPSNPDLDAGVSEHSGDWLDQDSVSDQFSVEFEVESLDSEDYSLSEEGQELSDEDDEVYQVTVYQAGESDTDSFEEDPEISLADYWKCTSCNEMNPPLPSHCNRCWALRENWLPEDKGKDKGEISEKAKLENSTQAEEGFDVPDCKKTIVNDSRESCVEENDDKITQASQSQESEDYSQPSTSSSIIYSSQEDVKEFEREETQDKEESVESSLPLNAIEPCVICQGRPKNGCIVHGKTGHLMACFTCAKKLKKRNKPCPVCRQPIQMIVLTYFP

Target: p53-Mdm2 binding (Homo sapiens, UniProt Q00987)
Conditions: Vassilev et al., 2004; cited from earlier work

Structure (SMILES)	p53-Mdm2 binding inhibition relative to nutlin 3a	p53 activation
COc1ccc(C2=N[C@H](c3ccc(Cl)cc3)[C@H](c3ccc(Cl)cc3)N2C(=O)N2CCNC(=O)C2)c(OC(C)C)c1 [nutlin 3b]	about 1/100	–
COc1ccc(C2=N[C@@H](c3ccc(Cl)cc3)[C@@H](c3ccc(Cl)cc3)N2C(=O)N2CCNC(=O)C2)c(OC(C)C)c1 [nutlin 3a]	–	activate p53
